The values below come from patent US9295674B2, “Metalloporphyrin neurological treatments” (dated 2016).

pIC50: −log10 of the molar value.

The test system of one data set is hippocampal synaptosomes. Kind of data set: Oxygen consumption rates (OCR) in isolated hippocampal synaptosomes of treated rats. Particulars: for Oxygen consumption rates (OCR) in isolated hippocampal synaptosomes: 48 h after injection in rats (FIGS. 8A-8B).
Data set [1] concerns pilocarpine-treated rats, hippocampus. In words: Combination therapy with atropine and diazepam in pilocarpine-treated rats.
Data set [2] in a line: Plasma and brain levels / BBB penetration after single s.c. dose in mice.
Data set [3] can be described thus: Net charge under physiological conditions of pH.
The conditions of data set [4]: cited from earlier work.
The conditions of data set [5]: following subcutaneous injection; cited from earlier work.
A short description of data set [6]: Catalase (CAT) activity / hydrogen peroxide dismutation by Clark(e) oxygen electrode. Conditions: catalase activity by Clarke electrode.
Data set [7] in a line: SOD activity: inhibition of the reduction of epinephrine by superoxide at pH 10.2.
Data set [8] can be described thus: AEOL10150 brain concentrations / BBB transit in rats after s.c. injection. Conditions: rat.
Data set [9] has as its system MPTP neurotoxicity in C57BL/6 mice. Kind of data set: MPTP neurotoxicity in mice. Particulars: 15 mg/kg×3 s.c. daily, beginning 1 h prior to MPTP.
The nature of data set [10]: Superoxide destruction measured by pulse radiolysis.
A short description of data set [11]: Peroxynitrite destruction (stop-flow).
The test system of data set [12] is pilocarpine-induced status epilepticus, hippocampus. Kind of data set: Pilocarpine-induced status epilepticus in rats (Fluoro-Jade B, HPLC oxidative stress indices).
For data set [13] the following is noted: Phase 1 human clinical trials; cited from earlier work.
For another data set, the system named is microglia (iba1). Kind of data set: Pilocarpine-induced hippocampal microglial activation (Iba1 staining). Conditions: pilocarpine treated rats; 5 mg/kg s.c. 60 or 90 min after pilocarpine, every 4 h; 24 h.
Data set [14] deals with kainate-induced status epilepticus, hippocampus. Kind of data set: Kainate-induced status epilepticus in rats (Fluoro-Jade B). Conditions: hilus and CA3 (FIGS. 6A-7B).
The nature of a further data set: 4HNE assay by HPLC. Conditions: read-out: 4HNE IC50.
[15] abbreviates: pilocarpine rats, injected 60 min after and every 4 h for 24 h.

Take `C=C(C)[C@H]1CN[C@H](C(=O)O)[C@H]1CC(=O)O`: the “Oxygen consumption rates (OCR) in isolated hippocampal synaptosomes” value in the data set on hippocampal synaptosomes is “decreased”.

On to `CC[C@@H]1C(=O)OC[C@@H]1Cc1cncn1C`, for which the “Deaths in the group” value in [1] (pilocarpine 340 mg/kg alone) is 3 of 5. Moreover, the “OCR in hippocampal synaptosomes vs. saline-treated rats” value in the data set on hippocampal synaptosomes (16 hours after injection, n=2 rats per group) was “decreased OCR”. In addition, in the data set on hippocampal synaptosomes, the “Oxygen consumption rates (OCR) in isolated hippocampal synaptosomes” value was “decreased”.

As usually defined, the pIC50 is the negative decadic logarithm of the IC50, by convention in mol/L. `CCn1cc[n+](CC)c1C1=C2C=CC3=[N+]2[Mn]24[n]5c1ccc5C(c1n(CC)cc[n+]1CC)=C1C=CC(=[N+]12)C(c1n(CC)cc[n+]1CC)=c1ccc([n]14)=C3c1n(CC)cc[n+]1CC`: the “Concentration in the mouse brain” value in data set [2] (single s.c. injection 15 mg/kg) is 150 to 200 pmol/g. Further, in [2] (single s.c. injection 15 mg/kg, mouse brain), the “Estimated brain concentration based on molecular weight” value was 100 to 200 nM. Further, the BBB penetration result in data set [2] (systemic administration in mice) was “penetrates the BBB”. Moreover, in data set [3], the Net charge result is recorded as “at least +5”. Also, the “Effect of adding to atropine + diazepam on GSH, GSSG, GSH/GSSG and 3-nitrotyrosine/tyrosine” value in [1] (5 mg/kg s.c. 60 min after pilocarpine, every 4 h, atropine 1 mg/kg i.m., diazepam 10 mg/kg i.p., hippocampus 24 h) was “enhance the effects of atropine and diazepam”. Besides, in the data set on hippocampal synaptosomes (setting [15]), the Maximal respiratory capacity result was “rescued”; the “Pilocarpine-induced decrease of maximal respiratory rates, ATP turnover, baseline respiration and glycolytic rates” value is listed as “largely prevented”. Further, the Water solubility result in data set [4] is “water soluble”. Moreover, in data set [5], the Pharmacokinetic properties result was “favorable pharmacokinetic properties”. Moreover, the CAT in data set [6] came to 2.2 min⁻¹. Also, the “SOD activity on a weight basis relative to CuZnSOD” value in data set [7] was “surpasses that of CuZnSOD”. Moreover, the “SOD Activity” value in data set [7] (unit = amount inhibiting one-half the reduction of epinephrine by superoxide at pH 10.2) is 43103 U/mg. For the same compound, in data set [8] (s.c. administration), the BBB transit entry is listed as “transits the BBB”. In data set [8] (systemic administration), the “AEOL 10150 levels in the brain (hippocampus and cortex)” value is reported as “neuroprotective concentrations”. The “Protection against MPTP neurotoxicity” value in data set [9] was “protects against MPTP”. Moreover, in [10], the “kcat(O2•−)” value came out at 6.78 × × 10^7 M^−1 s^−1. Moreover, the “k(ONOO−)” value in data set [11] was determined as 1.01 × × 10^7 M^−1s^−1. In addition, in data set [12] (30 min pretreatment, compared with 60 and 90 min post-pilocarpine, 48 h (FIG. 14B)), the “Protection of oxidative stress indices” value is on record as “maximum protection”. For the same compound, in data set [12] (hilus and CA3 (FIGS. 5A-5B)), the “Pilocarpine-induced hippocampal cell death” value is given as “attenuates”. The “Pilocarpine-induced GSH/GSSG changes” value in [12] (hippocampus, post-treatment (FIGS. 2A-2C)) is “attenuates”. The “Pilocarpine-induced Cysteine/Cystine changes” value in data set [12] (hippocampus, post-treatment (FIGS. 3A-3C)) is given as “attenuates”. In addition, the “Pilocarpine-induced increase in 3-Nitrotyrosine/Tyrosine ratio” value in [12] (hippocampus, post-treatment (FIGS. 4A-4B)) is “attenuates”. Moreover, in data set [12] (injected s.c. 90 min after pilocarpine, sacrificed 24 h thereafter), the “Hippocampal cell loss in the hilar and CA3 regions (Fluoro-Jade B)” value is reported as “significantly decrease”. Besides, the “Oxidative stress indices (3-NT/tyr and GSH/GSSG ratios) in the hippocampus” value in data set [12] (injection 90 minutes after pilocarpine, 24 hours later) was “statistically significant inhibition”. Moreover, the “Oxidative stress indices (GSH, GSSG, GSH/GSSG ratios) in the hippocampus” value in data set [12] (injection at 60 or 90 minutes after pilocarpine, 5 mg/kg s.c. every 4 h) is “inhibition”. Further, in data set [12] (pilocarpine-treated rats, 24 h post-SE), the “Oxidative stress indices (3-NT/tyr and GSH/GSSG ratios) in the hippocampus” value was “significantly decreased”. For the same compound, the Adverse events entry in [13] is listed as “low incidence of adverse events”. For the same compound, in the data set with microglia (iba1), the “Hippocampal microglial activation (Iba1)” value is recorded as “significantly attenuated”. The “Kainate-induced hippocampal cell death” value in data set [14] is given as “attenuates”. Besides, in the data set “4HNE assay by HPLC”, the negative-log IC50 (pIC50) was 6.57.
